In PubChem BioAssay (NCI):
Only a part is listed here, and it is no random draw.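 Cells were grown in 96-well plates and exposed to the test compound at a single concentration for 48 hours; results are reported as percent growth, with values below 10 considered active.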 Calls of active or inactive are those of the source.

Key:
Assay in all cases: NCI-60 one-dose screen, 48 h (100 = growth as untreated, 0 = no growth, -100 = all killed)
Details in all cases: 10 µM
SK-MEL-2 melanoma = system: SK-MEL-2 melanoma
EKVX NSCLC = system: EKVX NSCLC
SN12C renal = system: SN12C renal
UO-31 renal = system: UO-31 renal
TK-10 renal = system: TK-10 renal
ACHN renal = system: ACHN renal
CAKI-1 renal = system: CAKI-1 renal
A498 renal = system: A498 renal
HL-60(TB) leukemia = system: HL-60(TB) leukemia
CCRF-CEM leukemia = system: CCRF-CEM leukemia
MOLT-4 leukemia = system: MOLT-4 leukemia
SR leukemia = system: SR leukemia
RPMI-8226 leukemia = system: RPMI-8226 leukemia
OVCAR-8 ovarian = system: OVCAR-8 ovarian
OVCAR-5 ovarian = system: OVCAR-5 ovarian
OVCAR-4 ovarian = system: OVCAR-4 ovarian
SK-OV-3 ovarian = system: SK-OV-3 ovarian
IGROV1 ovarian = system: IGROV1 ovarian
OVCAR-3 ovarian = system: OVCAR-3 ovarian
HS 578T breast = system: HS 578T breast

Measured: growth

CC(C)N(CCCl)C(C)C
inactive: SK-MEL-2 melanoma 120% | EKVX NSCLC 121% | SN12C renal 99.7% | UO-31 renal 98.2% | TK-10 renal 118% | ACHN renal 106% | CAKI-1 renal 97.4% | A498 renal 82.6% | HL-60(TB) leukemia 116% | CCRF-CEM leukemia 102% | MOLT-4 leukemia 125% | SR leukemia 120% | RPMI-8226 leukemia 99.3% | OVCAR-8 ovarian 98.5% | OVCAR-5 ovarian 107% | OVCAR-4 ovarian 113% | SK-OV-3 ovarian 101% | IGROV1 ovarian 134% | OVCAR-3 ovarian 111% | HS 578T breast 101%

O=[N+]([O-])OCC(O[N+](=O)[O-])C(CO[N+](=O)[O-])O[N+](=O)[O-] (centres undefined)
inactive: SK-MEL-2 melanoma 102% | EKVX NSCLC 121% | SN12C renal 105% | UO-31 renal 79.4% | TK-10 renal 121% | ACHN renal 107% | CAKI-1 renal 112% | HL-60(TB) leukemia 115% | CCRF-CEM leukemia 104% | MOLT-4 leukemia 101% | SR leukemia 105% | RPMI-8226 leukemia 108% | OVCAR-8 ovarian 109% | OVCAR-5 ovarian 103% | OVCAR-4 ovarian 122% | SK-OV-3 ovarian 125% | OVCAR-3 ovarian 106%

n1nc(-c2nn[nH]n2)n[nH]1
inactive: SK-MEL-2 melanoma 98.5% | EKVX NSCLC 117% | SN12C renal 101% | UO-31 renal 81.8% | TK-10 renal 127% | ACHN renal 108% | CAKI-1 renal 98.2% | A498 renal 100% | HL-60(TB) leukemia 102% | CCRF-CEM leukemia 89.5% | MOLT-4 leukemia 101% | SR leukemia 100% | RPMI-8226 leukemia 95.1% | OVCAR-8 ovarian 108% | OVCAR-5 ovarian 98.4% | OVCAR-4 ovarian 103% | SK-OV-3 ovarian 106% | IGROV1 ovarian 108% | OVCAR-3 ovarian 121% | HS 578T breast 92.7%

OCCSCCO
inactive: SK-MEL-2 melanoma 105% | EKVX NSCLC 96.7% | SN12C renal 95% | UO-31 renal 82.6% | TK-10 renal 105% | ACHN renal 105% | CAKI-1 renal 86.8% | HL-60(TB) leukemia 89.9% | CCRF-CEM leukemia 110% | MOLT-4 leukemia 101% | RPMI-8226 leukemia 98.3% | OVCAR-8 ovarian 107% | OVCAR-5 ovarian 110% | OVCAR-4 ovarian 114% | SK-OV-3 ovarian 104% | IGROV1 ovarian 100% | OVCAR-3 ovarian 114% | HS 578T breast 102%

CN/C(N)=N/[N+](=O)[O-]
inactive: SK-MEL-2 melanoma 103% | EKVX NSCLC 112% | SN12C renal 97.6% | UO-31 renal 87% | TK-10 renal 97.5% | ACHN renal 99.3% | CAKI-1 renal 105% | A498 renal 88.9% | HL-60(TB) leukemia 97.5% | CCRF-CEM leukemia 102% | MOLT-4 leukemia 93.2% | SR leukemia 95.9% | RPMI-8226 leukemia 114% | OVCAR-8 ovarian 106% | OVCAR-5 ovarian 101% | OVCAR-4 ovarian 101% | SK-OV-3 ovarian 110% | IGROV1 ovarian 129% | OVCAR-3 ovarian 109% | HS 578T breast 114%

COc1ccc(C(O)(C(=O)OCCN2CCCCC2)c2ccc(OC)cc2)cc1
inactive: SK-MEL-2 melanoma 104% | EKVX NSCLC 101% | SN12C renal 112% | UO-31 renal 82.4% | TK-10 renal 111% | ACHN renal 96.7% | CAKI-1 renal 87.4% | A498 renal 87.6% | HL-60(TB) leukemia 125% | CCRF-CEM leukemia 94.3% | MOLT-4 leukemia 106% | SR leukemia 115% | RPMI-8226 leukemia 88.5% | OVCAR-8 ovarian 99.4% | OVCAR-5 ovarian 91.4% | OVCAR-4 ovarian 110% | SK-OV-3 ovarian 119% | IGROV1 ovarian 71% | OVCAR-3 ovarian 92.2% | HS 578T breast 99%

Nc1cc([As](Cl)Cl)cc(N)c1O
inactive: SK-MEL-2 melanoma 89.9% | EKVX NSCLC 55.9% | SN12C renal 80.2% | UO-31 renal 83% | TK-10 renal 76.1% | ACHN renal 97.8% | CAKI-1 renal 60.8% | A498 renal 83.2% | HL-60(TB) leukemia 62.6% | CCRF-CEM leukemia 20.7% | MOLT-4 leukemia 75.3% | SR leukemia 39.5% | RPMI-8226 leukemia 40% | OVCAR-8 ovarian 62.2% | OVCAR-5 ovarian 134% | OVCAR-4 ovarian 75% | SK-OV-3 ovarian 99.9% | IGROV1 ovarian 51.9% | OVCAR-3 ovarian 68.4%

Nc1cccc(Cl)c1.O=[N+]([O-])c1cc([N+](=O)[O-])c(O)c([N+](=O)[O-])c1
inactive: SK-MEL-2 melanoma 102% | EKVX NSCLC 90.7% | SN12C renal 93.7% | UO-31 renal 75.5% | TK-10 renal 107% | ACHN renal 96.6% | CAKI-1 renal 91% | A498 renal 109% | HL-60(TB) leukemia 84.9% | CCRF-CEM leukemia 88.4% | MOLT-4 leukemia 102% | SR leukemia 101% | RPMI-8226 leukemia 92.5% | OVCAR-8 ovarian 102% | OVCAR-5 ovarian 104% | OVCAR-4 ovarian 110% | SK-OV-3 ovarian 108% | IGROV1 ovarian 103% | OVCAR-3 ovarian 114% | HS 578T breast 97.4%
